From PubChem BioAssay AID1217 (Sanford-Burnham Center for Chemical Genomics, 2008) come the findings set out here.

Only a part is listed here, and it is no random draw. Some of these compounds have results that are not shown, active ones among them. Active and inactive are the calls of the source.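 The calls were made as follows: active = primary screen inhibition at 20 µM above a set limit (cut at about 50% in these data); inactive = the rest.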

The experiment relates to diaphorase (Clostridium kluyveri). In words: diaphorase inhibitors and chemical oxidizers, primary screen, counter-screen for diaphorase-coupled primary assays, biochemical, uHTS, resorufin fluorescence (AID 1217).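 Also: plate controls were DMSO with full reaction for no effect and wells lacking NADH for full effect.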 Particulars: diaphorase resazurin-to-resorufin fluorescence, NADH, 16 min; at 20 µM; active compounds read high; bacterial (C. kluyveri) enzyme, not human. In outline: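 Assay system: diaphorase enzyme from Clostridium kluyveri. Quantity: enzyme working solution with 0.14 U/mL diaphorase. Schedule: reaction incubation of 16 min at room temperature. Technique: resorufin fluorescence, excitation 544 nm, emission 590 nm. Controls: No-NADH positive control and DMSO neutral control.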
(In general: A counterscreen serves to expose hits that act by an unwanted route or on another target.)
`O=C(OC1CN2CCC1CC2)C(CO)(c1ccccc1)c1ccccc1` (centres undefined): the inhibition is inactive: 6.1%.

`CN(C)c1cccc(C(=O)NCC2(N(C)C)CCCCC2)c1`: the inhibition is inactive: 19.1%.

On to `COc1cccc(C(=O)NCC2(N3CCCCC3)CCCCC2)c1`, for which the inhibition is inactive: 9.5%.

Regarding `Cc1ccccc1C(=O)NCC1(N2CCCCC2)CCCCC1`, the inhibition was inactive: 3.4%.

With `CN(C)C1CCCC1OC(=O)C(O)(c1ccccc1)c1ccccc1` (centres undefined), the inhibition is inactive: -0.8%.

With `CCN1CCCC(OC(=O)C2(O)c3ccccc3C=Cc3ccccc32)C1` (centres undefined), the inhibition is inactive: 4.3%.

Consider `C=CCN1CCN(CCOC(=O)C(O)(c2ccccc2)c2ccccc2)CC1`, for which the inhibition is inactive: 5.9%.

Turning to `O=C(NCC1(N2CCCCC2)CCCCC1)c1cc([N+](=O)[O-])ccc1Cl`, the inhibition was inactive: -5.3%.

As for `CC(C)N1C(=O)CC2(CCN(CCOC(=O)C(O)(c3ccccc3)c3ccccc3)CC2)C1=O`, the inhibition is inactive: 1.9%.

The term inhibition denotes the relative decrease from the control value, in per cent.
